Measurements: ChEMBL document CHEMBL5550208, “Discovery and Optimization of Hsp110 and sGC Dual-Target Regulators for the Treatment of Pulmonary Arterial Hypertension” (J Med Chem, 2024)

Legend:
in vivo [1] = conditions: male, Sprague-Dawley, rat, po, 10 mg/kg
in vivo [2] = conditions: male, Sprague-Dawley, rat, po, 10 mg/kg; remark: listed apart in the source
in vivo [3] = conditions: male, Sprague-Dawley, rat, po, 10 mg/kg; remark: listed apart in the source
in vivo [4] = conditions: male, Sprague-Dawley, rat, po, 10 mg/kg; remark: listed apart in the source
in vivo [5] = conditions: male, Sprague-Dawley, rat, po, 10 mg/kg; remark: listed apart in the source
in vivo [6] = conditions: male, Sprague-Dawley, rat, po, 10 mg/kg; remark: listed apart in the source
in vivo [7] = conditions: male, Sprague-Dawley, rat, po, 10 mg/kg; remark: listed apart in the source
in vivo [8] = conditions: male, Sprague-Dawley, rat, po, 10 mg/kg; remark: listed apart in the source
in vivo [9] = conditions: male, Sprague-Dawley, rat, po, 10 mg/kg; remark: listed apart in the source
in vivo [10] = conditions: male, Sprague-Dawley, rat, iv, 1 mg/kg
in vivo [11] = conditions: male, Sprague-Dawley, rat, iv, 1 mg/kg; remark: listed apart in the source
in vivo [12] = conditions: male, Sprague-Dawley, rat, iv, 1 mg/kg; remark: listed apart in the source
in vivo [13] = conditions: male, Sprague-Dawley, rat, iv, 1 mg/kg; remark: listed apart in the source
in vivo [14] = conditions: male, Sprague-Dawley, rat, iv, 1 mg/kg; remark: listed apart in the source
in vivo [15] = conditions: male, Sprague-Dawley, rat, iv, 1 mg/kg; remark: listed apart in the source

O=C(O)CCc1cccc(NC(=O)c2cc(Cl)ccc2NC(=O)c2ccc(C(F)(F)F)cc2)c1
Cmax (in vivo [1]): 277 ng/mL | Tmax (in vivo [2]): 4 h | half-life (in vivo [3]): 11.9 h | AUC(0-t) (in vivo [4]): 1650 ng·h/mL | AUC(0-inf) (in vivo [5]): 1970 ng·h/mL | Vd/F (in vivo [6]): 87.3 L/kg | CL/F (in vivo [7]): 84.8 mL/min/kg | MRT (in vivo [8]): 4.79 h | bioavailability (in vivo [9]): 54.4% | Cmax (in vivo [10]): 50.7 ng/mL | C0 (in vivo [11]): 54.7 ng/mL | half-life (in vivo [12]): 8.09 h | AUC(0-t) (in vivo [13]): 295 ng·h/mL | AUC(0-inf) (in vivo [14]): 362 ng·h/mL | MRT (in vivo [15]): 11.6 h
